# Data as given in patent publication EP0800503B1, “NOVEL TRIENOIC RETINOID COMPOUNDS AND METHODS” (LIGAND PHARMACEUTICALS, INC., priority 1994, dated 1996).
# Assays:
# Assay type in all cases: cell-based
# TPA induction of ODC = test: Ornithine decarboxylase (ODC) assay, inhibition of TPA induction of ODC; settings: read-out: ODC IC80 (nM)
# ME 180 cell line = test: Incorporation of 3H-thymidine; settings: Homo sapiens, ME-180, 96 h, read-out: TdR IC50 (nM)
# RPMI 8226 cell line = test: Incorporation of 3H-thymidine; settings: Homo sapiens, RPMI-8226, 96 h, read-out: TdR IC50 (nM)
smiles,measurement,setting,value
"CC1=C(/C=C/C(C)=C/C=C/C(C)=C/C(=O)O)C(C)(C)CCC1 [ATRA, all-trans retinoic acid, reference compound]",IC80,TPA induction of ODC,1.4 nM
same,IC50,ME 180 cell line,253 nM
same,IC50,RPMI 8226 cell line,102 nM
